Binding of CDR-mutated scFvs to a peptide of the spike HR2 region

All variants were tested on one target, the spike HR2 peptide PDVDLGDISGINAS (SARS-CoV-2).

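Phage display of a naive human antibody library on the peptide gave the parent. Designed CDR sequences, proposed from the first random library and measured here. Several design methods are mixed in this list. Affinity was read by AlphaSeq, a pooled yeast mating assay with surface-displayed partners. The frequency of each diploid, read from paired DNA barcodes, reflects how well the two displayed proteins bind. Read counts were normalised to the haploid input and turned into Kd by a linear fit to BCL2-family pairs of known affinity, for each replicate. Each pool was mated in six replicate cultures.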

The variants keep the heavy chain, the linker and the frameworks of Ab-14 (scFv order VH, the linker GGGGSGGGGSGGGGS, VL).
VH: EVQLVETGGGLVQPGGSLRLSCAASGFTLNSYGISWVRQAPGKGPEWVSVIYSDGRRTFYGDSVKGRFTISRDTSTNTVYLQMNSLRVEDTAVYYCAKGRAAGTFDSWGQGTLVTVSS
VL: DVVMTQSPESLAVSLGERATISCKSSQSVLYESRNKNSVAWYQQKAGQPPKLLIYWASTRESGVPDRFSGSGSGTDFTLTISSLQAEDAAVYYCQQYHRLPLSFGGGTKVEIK

The parent's light chain CDRs are KSSQSVLYESRNKNSVA, WASTRES, QQYHRLPLS; each variant's own CDRs replace them letter for letter. Values are apparent Kd, the geometric mean of the replicates that gave a signal; lower means stronger binding. A pair that was not seen in any replicate is written "no signal"; this usually means weak binding, but a binder can also be missed. A sequence measured in both rounds can read differently, since the two assays cover different ranges.

CDR-L1	CDR-L2	CDR-L3	apparent Kd	replicates with signal
KLSQSTLYESRNKNSVA	NASTRES	QQYHRLPLS	1.3 nM	6/6
KVEQSHLYESRNKNSVA	NASTRLS	QQYHRLPLS	900 pM	6/6
NSSGPMMFESRNKNSVA	HASTREE	QQYERLPLS	760 pM	6/6
QMELMYEDVGHQMNSIA	DETMKPA	QQYLRLPLH	110 nM	6/6
KSSQSVLYYSRNKNSVA	AASTRYS	QQYHRLPLS	280 nM	3/6
KLSSSVLYESRNKNSVA	NASTRES	QQYHRLPLS	400 pM	6/6
KSSQSVLYESRNKNSVA	WASTRES	GQYARLPII	no signal	0/6
KSSLSVLVESRNKNSVA	WAMTRES	QQYHRLPLS	12 nM	1/6
KVSQEYLGESRNMNSVA	NASTREQ	QQYHRLPLS	3.4 nM	6/6
HMSMLTLMGMRQRNSVA	QMTMREN	QQYDRLPLM	28 nM	6/6
TISQSAQTESHNKNSVA	DLNVRGS	QQYDRLPLS	2.1 nM	6/6
KSSQSVPYESRNKNSVA	WASLRER	QQYHRLSLS	54 nM	1/6
VMFMGLYWGNIEHQAIA	NGTMREK	QQYHRLPLQ	42 nM	6/6
KIGLTLNTLMHQKNNVA	DLVTREN	QQYFRLPLS	36 nM	4/6
KSSQSVLYESRNKNSVA	WSSTPES	QQYHRLPLS	no signal	0/6
KLRMSTGYESRNKDSIA	DNSTRGR	QQYHRLPLS	22 nM	6/6
TISQMFLGESRMRNSVA	QASTRES	QSYDRLPLS	190 nM	6/6
KISQSFLMESMNKNSVA	NASTRIW	QQYHRLPLS	1.3 nM	6/6
KISQMAWYESTWWNAIA	QTSEREE	QQYHRLPLS	28 nM	5/6
KVSMSWMQEERNKNSVA	QASQREQ	QQYHRLPLS	1.4 nM	6/6
MVTQMAMTGMMSKRSVA	NAETRET	QQYHRLPLI	6.1 nM	6/6
KLEQSVLYESRNKNSVA	NASTRFS	QQYHRLPLS	1.2 nM	6/6
KLPQSVLYESRNKNSVA	GASQRES	QQYHRLPLS	1.3 nM	6/6
KSSQSVLTESRNKNSVA	WQSTRES	QQYHRLPLN	no signal	0/6
KSSQSGAYESRNKNSVA	DASTREL	QYYHRFPLS	11 nM	6/6
KSSESYLEESRNKNSVA	EASTRES	QQYHRLPLS	780 pM	6/6
KIGMTLNQLLHQKNNVA	DLVTREN	QQYHRLPLS	4.0 nM	6/6
NLSGMTAHETVKEKNIA	ERSTREM	QQYNRLPLS	2.3 nM	6/6
QLELVQSNDTILENNVA	HAEVSGR	QQYSQLPLI	380 nM	1/6
KLQQSELMESRNSNSVA	HASKRES	QDYHRLPLS	3.7 nM	6/6
KQSQSVLYEWGNKNSVA	DASTRES	QQYHRLPLS	940 pM	6/6

Second part, the sequence after the result:

apparent Kd	replicates with signal	CDR-L1	CDR-L2	CDR-L3
6.8 nM	6/6	TIAQMFLGESRNRNSVA	QASTRES	QSYDRLPLS
3.0 nM	30/30	KSSDSKLYESLNKNSVA	QASTRES	QQYHRLPLY
120 nM	1/6	SIAESAHLESRNKNSVA	DNTTRES	QHYDRLPLS
1.8 µM	1/6	KSSQSVLYYSRNKNSVA	WDSTRES	QQYHRLPLS
1.8 nM	6/6	KLSQSVDYESRNKNSVA	NASTRCS	QQYHRLPLS
1.5 nM	6/6	KLDQSWWGEWRNKNSVA	QASTREQ	QQYHRLPLS
99 nM	4/6	TISQTMLMENQFKNSVA	QASTRES	QCYDRLPLS
4.6 nM	6/6	MFSYNLHDMGANKHSVA	DMNKVTG	QDYHRLPLS
4.2 nM	6/6	TISQVLNTLTRTGNNVA	DLAERED	QQYFRLPLS
6.0 nM	6/6	KLSNMQEYESRWKNSVA	NASTREL	QQYHRLPLS
1.6 nM	6/6	KVEWSDLLESRNKQSVA	QASTRES	QQYHRLPLS
12 nM	6/6	KLRQVTGYEMYNKNSVA	QTSTRVS	QDYHRLPLS
110 nM	1/6	IVSQLMLWGVSAKNSIA	EAVTRLN	QQYDRLPLF
20 nM	6/6	HMSALTLMGSRQRNSVA	QMTTREN	QQYDRLPLI
390 pM	6/6	KFSQSWLYESRNKNSVA	HASQRES	QQYHRLPLS
22 nM	6/6	KLQQSELYMSRNCNSVA	DASQRES	QQYHRLPLS
8.3 nM	6/6	QLEFYDVQGTAKWHAIA	EGSQLAQ	QQYFHLPLG
200 nM	2/6	SQSQSHLYESRNKNSVA	WASQRES	QQYHRLPWS
7.6 nM	6/6	HVEHAWLLSNATMNSVA	NGACLAD	QQYFRLPLA
33 nM	6/6	KSSQKYLYESRNKNSVA	GASTRES	QQYHRLPLS
510 pM	6/6	KLSQSVLYESRNKNSVA	NASQRLQ	QQYHRLPLS
2.5 nM	6/6	KLMGSMLYEQRMKNSVA	QASVRMS	QQYHRLPLS
310 pM	6/6	KLGQSVNYLSRVMNSVA	DNSTRES	QQYFRLPLS
48 nM	6/6	KVSEFMRGLMQLKDSIA	DNVTRNK	QQYDRLPLS
660 pM	6/6	KLRQSTLYESRNKNSVA	DASTRLS	QQYHRLPLS
1.1 nM	6/6	KSSLSYLEESRNKNSVA	EASTRES	QQYHRLPLS
3.0 nM	6/6	KQEQSVMLESRWKNSVA	NASTRMS	QQYHRLPLS
80 nM	5/6	KSSQSVLYESLNLNSIA	WASTRES	QQQHRLPPS
2.1 µM	4/6	KFSQSVLYESRNKNSVA	EASTRES	NQYHRLPLS
9.2 nM	6/6	KLSQSDNYESRNHNSVA	HASCRCS	QQYHRLPLS
53 nM	6/6	MISQLFMYGSRNYNSIA	QASTREK	QQYDRLPLI
1.8 nM	6/6	KVSQLQDYGSRNKNSVA	NASQREH	QQYHRLPLS

The first 7 entries again:

| CDR-L1 | CDR-L2 | CDR-L3 | apparent Kd | replicates with signal |
|---|---|---|---|---|
| KLSQSTLYESRNKNSVA | NASTRES | QQYHRLPLS | 1.3 nM | 6/6 |
| KVEQSHLYESRNKNSVA | NASTRLS | QQYHRLPLS | 900 pM | 6/6 |
| NSSGPMMFESRNKNSVA | HASTREE | QQYERLPLS | 760 pM | 6/6 |
| QMELMYEDVGHQMNSIA | DETMKPA | QQYLRLPLH | 110 nM | 6/6 |
| KSSQSVLYYSRNKNSVA | AASTRYS | QQYHRLPLS | 280 nM | 3/6 |
| KLSSSVLYESRNKNSVA | NASTRES | QQYHRLPLS | 400 pM | 6/6 |
| KSSQSVLYESRNKNSVA | WASTRES | GQYARLPII | no signal | 0/6 |

The authors' rule: three or more of the six replicates give a measured affinity, fewer mean a poor binder. Background: pairings of all light chain designs with three empty control strains gave a value in 4% of cases (median 430 nM, 5th percentile 38 nM). Values in that range, when seen in few replicates, are hard to tell from nonspecific mating. Where one sequence has several entries in the source, the replicates are pooled.

Data: MIT Lincoln Laboratory AlphaSeq set, Li et al. 2023, doi:10.1038/s41467-023-39022-2, as distributed in FLAb.